## Measured affinities in a library of Ab-14 light chain variants

Target: peptide PDVDLGDISGINAS, taken from heptad repeat 2 (HR2) of SARS-CoV-2 spike.

Parent scFv Ab-14: VH joined to VL by a 15-residue (Gly4Ser)3 linker. Changes lie in the light chain CDRs alone.
VH: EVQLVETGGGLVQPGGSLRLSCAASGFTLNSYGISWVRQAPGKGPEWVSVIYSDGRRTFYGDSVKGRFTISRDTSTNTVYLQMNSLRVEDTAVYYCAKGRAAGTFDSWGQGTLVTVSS
VL: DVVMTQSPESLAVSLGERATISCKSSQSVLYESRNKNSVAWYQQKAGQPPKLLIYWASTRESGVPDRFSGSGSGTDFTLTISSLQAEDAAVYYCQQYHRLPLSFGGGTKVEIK

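The parent was found by panning a naive human phage display library on the peptide. Designed CDR sequences, proposed from the first random library and measured here. Their group label is 14L_Ctrl (Ctrl: baseline library sampled from a position-specific scoring matrix, with some repeated check sequences). In AlphaSeq, yeast of one mating type display the scFv and yeast of the other type display the target. Binding brings cells together so that they mate, and sequencing counts the barcode pairs among the diploids. Scores were corrected for input abundance and mapped to Kd with protein pairs of known affinity run in the same pool. Mating was done six times.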

Variants are written as CDR1, CDR2 and CDR3 of the light chain (limits as in the source). Parent: KSSQSVLYESRNKNSVA, WASTRES, QQYHRLPLS.
Numbers give log10(Kd / nM), so 0 is 1 nM and 3 is 1 µM. Smaller is tighter.
Where no diploid with the target was found in that replicate, the entry reads "n.d.": below detection, most likely a poor binder, though not proof of it.
Background: pairings of all light chain designs with three empty control strains gave a value in 4% of cases (median 2.64, 5th percentile 1.59). Values in that range, when seen in few replicates, are hard to tell from nonspecific mating. Also given: how often the same scFv was detected with the empty control strains, with their mean in brackets.
The authors' rule: three or more of the six replicates give a measured affinity, fewer mean a poor binder.
A sequence measured in both rounds can read differently, since the two assays cover different ranges.

CDR-L1	CDR-L2	CDR-L3	log10 Kd (nM) by replicate	control signals
KVSISWLYESRNKNSVA	WASTRES	QQYDRLPLS	2.86 / n.d. / n.d. / n.d. / 1.87 / 2.71	0/18
KSSQSVWYESNNLNSVA	WASTRES	QQYHRLPLS	n.d. / 2.33 / 1.90 / 3.15 / n.d. / 2.95	1/18 (2.39)
KSSQSVLYESRNKNHVA	WASTRES	QQYHRLPLS	n.d. / n.d. / n.d. / 1.58 / n.d. / n.d.	0/18
KSSQSVLYPSRNKNSVA	EASTRES	QQYHRLPLS	0.45 / 0.80 / 0.30 / 0.66 / 0.16 / 0.47	1/18 (2.11)
KLSTSVLYESTNKNSVA	WASTREA	QQYHRLPLS	0.84 / 0.61 / 0.51 / 0.53 / 0.37 / 0.98	2/18 (3.29)
KLSMSVLYESVFKNSVA	WASMRES	QQYHRLPLS	1.24 / 1.00 / n.d. / 1.52 / 1.01 / 0.95	0/18
KYSQSVLYMSRNKNSVA	WASMRES	QQYHRLPLS	1.50 / 0.98 / 1.41 / 1.19 / 0.99 / 1.49	0/18
KSSQSVLYESRNKNSVA	DAYTRES	QQYHRLPLS	0.22 / 0.18 / -0.01 / 0.57 / 0.21 / 0.16	0/18
KSSQSVLHEQWNKNDVA	WASTRES	QQYHRTPLS	n.d. / n.d. / n.d. / 3.02 / n.d. / n.d.	0/18
KISQSVLYEHRNKNSVA	WASTRES	QQYHRLPLE	n.d. / n.d. / n.d. / n.d. / 2.58 / 0.75	1/18 (0.78)
KSSQSMLYEYRNKNSVA	WASTRES	QQYHRLPLS	n.d. / n.d. / n.d. / n.d. / n.d. / n.d.	0/18
KDSQSVEYERRNKNSVA	SASTRES	QQYHRLPLS	0.12 / 0.46 / 0.02 / 0.28 / -0.18 / 0.28	1/18 (2.05)
KFSQSVLYESRNKNSVA	KASTRES	QQCHRLPLS	n.d. / 1.97 / n.d. / n.d. / n.d. / n.d.	1/18 (2.05)
KSSQSVLYQSRNQNSVA	AASTRES	QQYHGLPLS	0.94 / 0.94 / 0.64 / 0.63 / 0.90 / 0.62	0/18
KMSQSVLYESDNTNPVA	WASTRES	QQYHRLPWS	0.91 / 1.23 / 1.47 / 0.79 / 0.82 / 2.11	0/18
KSSQSVLFERRNKNSVA	WVSTRES	QQYHYLPLS	n.d. / n.d. / n.d. / n.d. / n.d. / n.d.	0/18
KSSQSKLRESRYKNSVA	WASTRES	QQGHRLPLS	n.d. / n.d. / n.d. / n.d. / n.d. / n.d.	1/18 (1.14)
KSSQSVLYESRNKNSVA	YASTRES	QVYHRLQLS	n.d. / n.d. / n.d. / n.d. / n.d. / n.d.	0/18
KSSPSQLYESRNKNSVA	WVSMRES	QQYHRLPLS	n.d. / n.d. / n.d. / n.d. / n.d. / n.d.	0/18
KSSQSCLYESENKNSVA	WASTRES	QQYTRLPLS	n.d. / 1.11 / n.d. / n.d. / n.d. / n.d.	0/18
KSSQSVLYESRFKNSVA	WGSTRES	QQYHVMPLS	n.d. / n.d. / n.d. / n.d. / n.d. / n.d.	0/18
KSSQSVEYESRNKISVA	EASTRES	AQYHRLPLS	n.d. / n.d. / n.d. / n.d. / n.d. / n.d.	0/18
KISQSDEYESRNKNSVA	WASTRES	QQHHRLPLS	n.d. / n.d. / n.d. / n.d. / n.d. / n.d.	0/18
KSSQNVLYEERNKNSVA	WASTRES	DQYHRLPLS	n.d. / n.d. / n.d. / n.d. / n.d. / n.d.	0/18
KSSQSCLYESRNKYSVA	WASTRES	QQYHRLPLS	n.d. / n.d. / n.d. / n.d. / n.d. / n.d.	1/18 (2.37)
KSSQSVLYESRNCNSVA	WASTRES	QQYHRLPLS	n.d. / n.d. / n.d. / n.d. / n.d. / 2.45	1/18 (2.65)
KSSQSVLYELRNKNSVA	GASARES	QQYHRLPLS	1.00 / 1.18 / 0.71 / 0.84 / 1.15 / 1.00	1/18 (2.36)
ASSQSVLYESRNTNSVA	HASTRES	QQYHRLPLS	3.94 / 0.93 / n.d. / n.d. / 2.75 / 1.91	1/18 (2.00)
KSQQSVLQESPQGNSVA	WASTRES	QQYHRLPES	n.d. / n.d. / n.d. / 2.43 / 2.87 / n.d.	0/18
KSAQSVLMESRNKNSVA	WASTRES	QQYHRLPLS	n.d. / n.d. / 2.50 / 2.68 / 2.46 / 2.62	0/18
KSSQSVLYESRNKNSVA	HASTRES	QQYHHLPLS	1.40 / 1.09 / 1.06 / 1.09 / 1.12 / 1.53	2/18 (3.05)
KTSTSVLYESRNTNSVA	WASYRES	QQYARDPLS	1.17 / 1.27 / 1.23 / n.d. / 1.29 / 1.17	0/18
KSSQSVLYERRNKNSVA	WANTRES	QQYHRYPLS	n.d. / n.d. / n.d. / n.d. / n.d. / n.d.	0/18
KISQSSLYEGRNKNSVA	HASTRES	QQYHKLPLS	0.38 / 0.22 / 0.19 / 0.19 / 0.33 / 0.33	4/18 (3.00)
KSSQSVLYESRNKNSVA	WASTRES	QQQHRLPLS	n.d. / n.d. / n.d. / n.d. / n.d. / n.d.	0/18
KSSQSTLYESRNKNSVA	WASTRES	QQYHRLPLS	2.73 / 0.64 / 0.70 / 1.49 / 1.23 / 1.62	0/18
KSSHSVLGESSNKNSVA	WASTRES	QQYHRLPLS	0.78 / 0.71 / 0.69 / 1.00 / 0.54 / 0.69	0/18
KSSKSLLYESRNKNSVA	WASTRES	QQSHRLPLS	n.d. / n.d. / n.d. / n.d. / n.d. / n.d.	0/18
KSSQSVLYESRNKNDVA	WASTRES	QQCHRLPLS	n.d. / n.d. / n.d. / n.d. / n.d. / n.d.	0/18
KSSQTVLYESRNKNSVA	AASTRES	QQYHRLPLS	0.47 / 0.64 / 0.37 / 0.38 / 0.54 / 0.59	0/18
KSLQSVLYESANKNSVA	WASTRES	QQYHRLPLS	n.d. / 2.75 / 2.16 / n.d. / n.d. / 3.30	1/18 (2.69)
KSSQSVLWESRNKNSVA	TASTRER	QQYHRLPLS	n.d. / n.d. / n.d. / n.d. / n.d. / n.d.	1/18 (1.54)
KSSQSVLIESRNKNSVA	HASTRES	QQYHRLPLS	0.95 / 1.06 / 2.59 / 1.12 / 2.10 / n.d.	1/18 (1.40)
KSSQSVTYESRNKNSVA	WASTRNE	QQPHRLPLS	n.d. / n.d. / n.d. / n.d. / n.d. / n.d.	2/18 (1.09)
KSKQSVLYESRNKQWVA	WASTRES	QQYHRLPLS	n.d. / n.d. / n.d. / n.d. / n.d. / n.d.	0/18
SVSHSVLYESRNKNSVA	WASTRES	QQYHRLPLS	n.d. / 1.24 / 2.78 / n.d. / 1.49 / n.d.	0/18
DSWQSVLYESRNKNSVA	NASTRES	VQYHRLPLS	n.d. / n.d. / n.d. / n.d. / n.d. / n.d.	0/18
KSQQSDLYESRNKNSVA	WASTRVS	QQYKRLPLS	1.06 / 1.29 / 1.02 / 0.98 / 1.62 / 1.69	0/18
GSSQSVLYESRNKNSVA	WASTRES	QQYHRLPLS	n.d. / n.d. / n.d. / n.d. / n.d. / n.d.	0/18
KSSQSVLAESRNKNSVA	DASTRHS	QQYARLPLY	0.28 / 0.19 / -0.01 / 0.18 / 0.09 / 0.22	2/18 (4.16)
HSSESVEQESSNKNSVA	WASTRES	QQYHKLPLS	0.82 / 0.72 / 0.53 / 0.48 / 0.66 / 0.76	1/18 (1.44)

Again, the first 6 entries without any signal:

| CDR-L1 | CDR-L2 | CDR-L3 | log10 Kd (nM) by replicate | control signals |
|---|---|---|---|---|
| KSSQSMLYEYRNKNSVA | WASTRES | QQYHRLPLS | n.d. / n.d. / n.d. / n.d. / n.d. / n.d. | 0/18 |
| KSSQSVLFERRNKNSVA | WVSTRES | QQYHYLPLS | n.d. / n.d. / n.d. / n.d. / n.d. / n.d. | 0/18 |
| KSSQSKLRESRYKNSVA | WASTRES | QQGHRLPLS | n.d. / n.d. / n.d. / n.d. / n.d. / n.d. | 1/18 (1.14) |
| KSSQSVLYESRNKNSVA | YASTRES | QVYHRLQLS | n.d. / n.d. / n.d. / n.d. / n.d. / n.d. | 0/18 |
| KSSPSQLYESRNKNSVA | WVSMRES | QQYHRLPLS | n.d. / n.d. / n.d. / n.d. / n.d. / n.d. | 0/18 |
| KSSQSVLYESRFKNSVA | WGSTRES | QQYHVMPLS | n.d. / n.d. / n.d. / n.d. / n.d. / n.d. | 0/18 |

Values reported by Li et al. 2023, doi:10.1038/s41467-023-39022-2 (FLAb copy).